Among the data in PubChem BioAssay AID360 (National Center for Advancing Translational Sciences (NCATS), 2006) are Potency values, retold here.

Chains of the proteins cited; added tags and fusions are not shown. Lines headed by an entry give the natural chain unless they say otherwise; changes in a name come on top.
UniProt P04062: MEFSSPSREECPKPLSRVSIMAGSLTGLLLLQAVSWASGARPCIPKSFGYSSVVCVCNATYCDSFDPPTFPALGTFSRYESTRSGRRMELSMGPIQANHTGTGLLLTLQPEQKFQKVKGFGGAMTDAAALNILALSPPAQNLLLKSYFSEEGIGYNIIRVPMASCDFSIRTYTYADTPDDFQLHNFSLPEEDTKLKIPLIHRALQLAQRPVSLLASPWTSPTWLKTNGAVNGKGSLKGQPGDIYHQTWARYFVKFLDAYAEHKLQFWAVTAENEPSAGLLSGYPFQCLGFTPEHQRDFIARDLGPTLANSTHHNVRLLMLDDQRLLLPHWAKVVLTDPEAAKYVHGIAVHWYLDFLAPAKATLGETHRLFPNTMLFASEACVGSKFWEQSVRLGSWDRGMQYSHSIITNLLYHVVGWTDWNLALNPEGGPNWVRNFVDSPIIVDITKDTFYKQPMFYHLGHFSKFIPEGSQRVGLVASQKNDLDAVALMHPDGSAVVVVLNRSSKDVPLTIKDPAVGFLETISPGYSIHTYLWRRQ

Only a part is listed here, and it is no random draw. Results filed as inconclusive are left out. Calls of active or inactive are those of the source. Rule as the data show it: active = potency below about 15 µM; inconclusive = mostly about 16 µM to 33 µM; inactive = weaker than that.
Potency is read from the fitted curve at half-maximal effect.

For this test, the target named is Lysosomal acid glucosylceramidase (Homo sapiens) (UniProt P04062). In words: Glucocerebrosidase.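 Also: the screen sought inhibitors.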 Conditions: purified enzyme, resorufin glucoside fluorescence (screen aimed at inhibitors), 20 min. The source says: NCGC Assay Overview: Beta-glucocerebrosidase catalyzes the hydrolysis of beta-glucocerebroside to glucose and ceramide. The inherited deficiency of beta-glucocerebrosidase results in Gaucher disease, which is characterized by a wide variety of symptoms including hepatosplenomegaly, anemia, thrombocytopenia, bony lesions and bone marrow infiltration with characteristic storage cells, known as Gaucher cells. There are also forms of the disorder affecting the central nervous system. Patients with the same genotypes can manifest with diverse clinical presentations and it is believed that improper folding and trafficking of beta-glucocerbrosidase may contribute to the phenotypes observed. […]
NCGC Assay Protocol Summary: Both enzyme and substrate were diluted in buffer composed of 50mM citric acid/KH2PO4, 10mM sodium taurocholate and 0.01% tween-20 at pH 5.9. […] This particular assay protocol is for the "red" substrate, and it was performed in 1536-well plate format as follows: Red fluorescence substrate assay: 2 uL enzyme 23 nL compound 1 uL substrate (final concentration of 30 uM) Incubate at room temperature (RT) for 20 minutes Read the plate in Viewlux plate reader (Ex=548(7) and Em=600(10)).
Regarding `COc1ccc(Cl)cc1Nc1nc(NCCO)nc(N2CCCC2)n1`, the Potency is active: 871 nM.
As for `CCc1nnc(NC(=O)c2ccc(NS(=O)(=O)c3ccccc3)cc2)s1`, the figure is active: 70 nM.
